For one compound, kinact/KI results are on record in PMC9697976, “Giardia lamblia G6PD::6PGL Fused Protein Inhibitors Decrease Trophozoite Viability: A New Alternative against Giardiasis” (International Journal of Molecular Sciences, 2022).

Sequences of proteins named here, by UniProt entry; tags and fusion partners are left off.
UniProt A8BWM5, entry or part of it: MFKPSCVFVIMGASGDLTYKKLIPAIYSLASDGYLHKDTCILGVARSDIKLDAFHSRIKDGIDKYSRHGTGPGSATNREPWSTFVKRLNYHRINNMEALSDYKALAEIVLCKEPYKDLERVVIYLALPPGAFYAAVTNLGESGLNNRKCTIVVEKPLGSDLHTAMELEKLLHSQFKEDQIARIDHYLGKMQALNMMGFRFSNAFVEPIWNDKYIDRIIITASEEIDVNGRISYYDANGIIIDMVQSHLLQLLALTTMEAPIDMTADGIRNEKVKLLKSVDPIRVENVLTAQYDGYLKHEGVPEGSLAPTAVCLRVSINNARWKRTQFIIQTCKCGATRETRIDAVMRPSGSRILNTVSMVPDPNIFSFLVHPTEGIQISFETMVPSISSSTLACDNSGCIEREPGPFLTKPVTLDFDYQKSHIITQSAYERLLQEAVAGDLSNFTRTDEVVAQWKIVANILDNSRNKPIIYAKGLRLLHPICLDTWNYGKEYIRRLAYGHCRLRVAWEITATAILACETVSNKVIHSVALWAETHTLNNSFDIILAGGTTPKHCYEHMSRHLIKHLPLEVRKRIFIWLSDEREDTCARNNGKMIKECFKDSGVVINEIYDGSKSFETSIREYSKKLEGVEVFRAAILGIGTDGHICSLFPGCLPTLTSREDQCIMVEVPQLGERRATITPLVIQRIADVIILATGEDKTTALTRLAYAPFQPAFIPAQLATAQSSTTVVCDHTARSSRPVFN

Structures are written as SMILES.

The target of this experiment is G6PD::6PGL fused enzyme (Giardia intestinalis, UniProt A8BWM5). The experiment in a line: Second-order inactivation constant (k2) of G6PD::6PGL. The class given is biochemical, Giardia lamblia. The conditions noted are these: read-out: Second-order inactivation constant (k2), 0.2 mg/mL enzyme, 37 °C, 0–120 min. As to the method: Figure 4 Inactivation of GlG6PD::6PGL by CNZ-7, CNZ-8, CMC-1, and FLP-2 chemical compounds. G6PD::6PGL enzyme was adjusted to 0.2 mg/mL and was incubated with different concentrations of (A) CNZ-7, (C) CNZ-8, (E) CMC-1, and (G) FLP-2 at 37 °C. At the indicated times, aliquots were withdrawn from the samples and assayed for residual activity. Initial velocity was fitted to determine each compound’s pseudo-first-order inactivation constants (k1). The second-order rate constant values of inactivation (k2) of each of the compounds (B) CNZ-7, (D) CNZ-8, (F) CMC-1, and (H) FLP-2 were obtained by fitting the calculated k1 value versus the concentration of the corresponding compound and adjusting to a linear regression model. All experiments were performed in triplicate. […] TEXT PRINTED IN THE PICTURE: (E) CNZ-7: k2 = 0.97 M^−1 × s^−1 | (F) CNZ-8: k2 = 0.60 (M^−1 × s^−1) | (G) CMC-1: k2 = 1.88 M^−1 × s^−1) | (H) FLP-2: k2 = 0.82 M^−1 × s^−1)
Inactivation assays were performed to determine the rate of each to form the enzyme–inhibitor complex. […] After the incubation period, enzyme activity was measured spectrophotometrically following the reduction of NADP^+ at 340 nm for each experimental condition. […]

Regarding `O=C1NC(=O)C(=Cc2ccc(OCc3ccccc3)cc2)C(=O)N1` [CMC-1], the kinact/KI was found to be 1.88 M⁻¹ s⁻¹.
